The source of these data is article PMC8927377.

The subject of the data set is N[C@@H](Cc1ccc(O)cc1)C(=O)O. Nature of the data set: purified protein. As to conditions: PBS pH 7.0, 1 uM PLP, oxidative (AAS) reaction to 4HPAA, also decarboxylated to tyramine.

Take PsTyDC6 (Papaver somniferum): the Km – broadly, the substrate concentration at which the rate is half of its maximum – came out at 580 µM.
